This experiment has as its target autotaxin (ATX) (Homo sapiens, UniProt Q13822). Description: Native Autotaxin Choline Release Assay. The conditions noted are these: read-out: MDA-MB-435S Assay IC50; autotaxin in conditioned medium from human melanoma cell line; choline released from LPC.

Drawing on patent US9000025B2, “Autotaxin inhibitors and uses thereof” (Amira Pharmaceuticals, Inc., priority 2010, dated 2015), this text covers IC50 for one compound.

pIC50: −log10 of the molar value.

Take `CCn1cc(-n2c(C)c(Sc3ccc(F)c(C(=O)O)c3)c3ccc(Cl)c(F)c32)cn1`: the negative logarithm of the IC50 (pIC50) is greater than 6.52.
